Data on one compound can be found in ChEMBL document CHEMBL4004823, “Discovery of Potent and Selective Inhibitors for G9a-Like Protein (GLP) Lysine Methyltransferase” (J Med Chem, 2017).

A short description of this data set: Permeability in human Caco2 cells. In kind it is ADME, cell-based. The conditions noted are these: caco-2.

`CCCCCCNc1nc(NC2CCN(C)CC2)c2cc(OC)c(OC)cc2n1` returned a permeability of 0.5 ×10⁻⁶ cm/s.
